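Compound exposure: 48 hours, 5 concentrations, 96-well plates. GI50 is the concentration that inhibits growth by half. TGI: concentration producing complete growth inhibition.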
Tests used:
Test in all cases: NCI-60 cell line screen, 48 h
TK-10 renal = test system: TK-10 renal
CAKI-1 renal = test system: CAKI-1 renal
HCT-116 colon = test system: HCT-116 colon
HOP-62 NSCLC = test system: HOP-62 NSCLC
SNB-19 CNS = test system: SNB-19 CNS
NCI-H322M lung = test system: NCI-H322M lung
HL-60(TB) leukemia = test system: HL-60(TB) leukemia
PC-3 prostate = test system: PC-3 prostate
SW-620 colon = test system: SW-620 colon
BT-549 breast = test system: BT-549 breast
MALME-3M melanoma = test system: MALME-3M melanoma
SR leukemia = test system: SR leukemia
A498 renal = test system: A498 renal
NCI-H522 lung = test system: NCI-H522 lung
NCI-H460 lung = test system: NCI-H460 lung
HCT-15 colon = test system: HCT-15 colon
M14 melanoma = test system: M14 melanoma
IGROV1 ovarian = test system: IGROV1 ovarian
SNB-75 CNS = test system: SNB-75 CNS
SK-MEL-5 melanoma = test system: SK-MEL-5 melanoma
KM12 colon = test system: KM12 colon
COLO 205 colon = test system: COLO 205 colon
HS 578T breast = test system: HS 578T breast
RXF 393 renal = test system: RXF 393 renal
U251 CNS = test system: U251 CNS
MOLT-4 leukemia = test system: MOLT-4 leukemia
786-0 renal = test system: 786-0 renal
T-47D breast = test system: T-47D breast
HT29 colon = test system: HT29 colon
CCRF-CEM leukemia = test system: CCRF-CEM leukemia
MDA-MB-231 breast = test system: MDA-MB-231 breast
RPMI-8226 leukemia = test system: RPMI-8226 leukemia
OVCAR-3 ovarian = test system: OVCAR-3 ovarian
SK-MEL-2 melanoma = test system: SK-MEL-2 melanoma
SF-539 CNS = test system: SF-539 CNS
SN12C renal = test system: SN12C renal
SF-268 CNS = test system: SF-268 CNS
UACC-62 melanoma = test system: UACC-62 melanoma
K-562 leukemia = test system: K-562 leukemia
LOX IMVI melanoma = test system: LOX IMVI melanoma
NCI-H23 lung = test system: NCI-H23 lung
DU-145 prostate = test system: DU-145 prostate
OVCAR-8 ovarian = test system: OVCAR-8 ovarian
SK-OV-3 ovarian = test system: SK-OV-3 ovarian
ACHN renal = test system: ACHN renal
HOP-92 NSCLC = test system: HOP-92 NSCLC
MDA-N = test system: MDA-N
MDA-MB-435 = test system: MDA-MB-435
A549 NSCLC = test system: A549 NSCLC
SK-MEL-28 melanoma = test system: SK-MEL-28 melanoma
UO-31 renal = test system: UO-31 renal
NCI/ADR-RES ovarian = test system: NCI/ADR-RES ovarian
UACC-257 melanoma = test system: UACC-257 melanoma
MCF7 breast = test system: MCF7 breast

O=C1OC(C(Cl)(Cl)Cl)Sc2ccccc21 (stereo not drawn)
GI50 (TK-10 renal): > 100 µM | TGI (TK-10 renal): > 100 µM | GI50 (CAKI-1 renal): > 100 µM | TGI (CAKI-1 renal): > 100 µM | GI50 (HCT-116 colon): > 100 µM | TGI (HCT-116 colon): > 100 µM | GI50 (HOP-62 NSCLC): > 100 µM | TGI (HOP-62 NSCLC): > 100 µM | GI50 (SNB-19 CNS): > 100 µM | TGI (SNB-19 CNS): > 100 µM | GI50 (NCI-H322M lung): 67.9 µM | TGI (NCI-H322M lung): > 100 µM | GI50 (HL-60(TB) leukemia): > 100 µM | TGI (HL-60(TB) leukemia): > 100 µM | GI50 (PC-3 prostate): > 100 µM | TGI (PC-3 prostate): > 100 µM | GI50 (SW-620 colon): > 100 µM | TGI (SW-620 colon): > 100 µM | GI50 (BT-549 breast): > 100 µM | TGI (BT-549 breast): > 100 µM | GI50 (MALME-3M melanoma): 88.5 µM | TGI (MALME-3M melanoma): > 100 µM | GI50 (SR leukemia): > 100 µM | TGI (SR leukemia): > 100 µM | GI50 (A498 renal): > 100 µM | TGI (A498 renal): > 100 µM | GI50 (NCI-H522 lung): > 100 µM | TGI (NCI-H522 lung): > 100 µM | GI50 (NCI-H460 lung): > 100 µM | TGI (NCI-H460 lung): > 100 µM | GI50 (HCT-15 colon): > 100 µM | TGI (HCT-15 colon): > 100 µM | GI50 (M14 melanoma): > 100 µM | TGI (M14 melanoma): > 100 µM | GI50 (IGROV1 ovarian): 80.6 µM | TGI (IGROV1 ovarian): > 100 µM | GI50 (SNB-75 CNS): > 100 µM | TGI (SNB-75 CNS): > 100 µM | GI50 (SK-MEL-5 melanoma): > 100 µM | TGI (SK-MEL-5 melanoma): > 100 µM | GI50 (KM12 colon): > 100 µM | TGI (KM12 colon): > 100 µM | GI50 (COLO 205 colon): > 100 µM | TGI (COLO 205 colon): > 100 µM | GI50 (HS 578T breast): > 100 µM | TGI (HS 578T breast): > 100 µM | GI50 (RXF 393 renal): > 100 µM | TGI (RXF 393 renal): > 100 µM | GI50 (U251 CNS): > 100 µM | TGI (U251 CNS): > 100 µM | GI50 (MOLT-4 leukemia): > 100 µM | TGI (MOLT-4 leukemia): > 100 µM | GI50 (786-0 renal): > 100 µM | TGI (786-0 renal): > 100 µM | GI50 (T-47D breast): > 100 µM | TGI (T-47D breast): > 100 µM | GI50 (HT29 colon): > 100 µM | TGI (HT29 colon): > 100 µM | GI50 (CCRF-CEM leukemia): 16.8 µM | TGI (CCRF-CEM leukemia): 96.1 µM | GI50 (MDA-MB-231 breast): > 100 µM | TGI (MDA-MB-231 breast): > 100 µM | GI50 (RPMI-8226 leukemia): > 100 µM | TGI (RPMI-8226 leukemia): > 100 µM | GI50 (OVCAR-3 ovarian): > 100 µM | TGI (OVCAR-3 ovarian): > 100 µM | GI50 (SK-MEL-2 melanoma): > 100 µM | TGI (SK-MEL-2 melanoma): > 100 µM | GI50 (SF-539 CNS): > 100 µM | TGI (SF-539 CNS): > 100 µM | GI50 (SN12C renal): > 100 µM | TGI (SN12C renal): > 100 µM | GI50 (SF-268 CNS): > 100 µM | TGI (SF-268 CNS): > 100 µM | GI50 (UACC-62 melanoma): > 100 µM | TGI (UACC-62 melanoma): > 100 µM | GI50 (K-562 leukemia): > 100 µM | TGI (K-562 leukemia): > 100 µM | GI50 (LOX IMVI melanoma): > 100 µM | TGI (LOX IMVI melanoma): > 100 µM | GI50 (NCI-H23 lung): > 100 µM | TGI (NCI-H23 lung): > 100 µM | GI50 (DU-145 prostate): > 100 µM | TGI (DU-145 prostate): > 100 µM | GI50 (OVCAR-8 ovarian): > 100 µM | TGI (OVCAR-8 ovarian): > 100 µM | GI50 (SK-OV-3 ovarian): > 100 µM | TGI (SK-OV-3 ovarian): > 100 µM | GI50 (ACHN renal): > 100 µM | TGI (ACHN renal): > 100 µM | GI50 (HOP-92 NSCLC): > 100 µM | TGI (HOP-92 NSCLC): > 100 µM | GI50 (MDA-N): > 100 µM | TGI (MDA-N): > 100 µM | GI50 (MDA-MB-435): > 100 µM | TGI (MDA-MB-435): > 100 µM | GI50 (A549 NSCLC): > 100 µM | TGI (A549 NSCLC): > 100 µM | GI50 (SK-MEL-28 melanoma): > 100 µM | TGI (SK-MEL-28 melanoma): > 100 µM | GI50 (UO-31 renal): > 100 µM | TGI (UO-31 renal): > 100 µM | GI50 (NCI/ADR-RES ovarian): > 100 µM | TGI (NCI/ADR-RES ovarian): > 100 µM | GI50 (UACC-257 melanoma): > 100 µM | TGI (UACC-257 melanoma): > 100 µM | GI50 (MCF7 breast): > 100 µM | TGI (MCF7 breast): > 100 µM
